Measured values taken from ChEMBL document CHEMBL1135688, “Pharmacophore model of drugs involved in P-glycoprotein multidrug resistance: explanation of structural variety (hypothesis)” (J Med Chem, 2002).

Amino acid sequences for entries named in this document (tags omitted).
UniProt P08183, whole entry: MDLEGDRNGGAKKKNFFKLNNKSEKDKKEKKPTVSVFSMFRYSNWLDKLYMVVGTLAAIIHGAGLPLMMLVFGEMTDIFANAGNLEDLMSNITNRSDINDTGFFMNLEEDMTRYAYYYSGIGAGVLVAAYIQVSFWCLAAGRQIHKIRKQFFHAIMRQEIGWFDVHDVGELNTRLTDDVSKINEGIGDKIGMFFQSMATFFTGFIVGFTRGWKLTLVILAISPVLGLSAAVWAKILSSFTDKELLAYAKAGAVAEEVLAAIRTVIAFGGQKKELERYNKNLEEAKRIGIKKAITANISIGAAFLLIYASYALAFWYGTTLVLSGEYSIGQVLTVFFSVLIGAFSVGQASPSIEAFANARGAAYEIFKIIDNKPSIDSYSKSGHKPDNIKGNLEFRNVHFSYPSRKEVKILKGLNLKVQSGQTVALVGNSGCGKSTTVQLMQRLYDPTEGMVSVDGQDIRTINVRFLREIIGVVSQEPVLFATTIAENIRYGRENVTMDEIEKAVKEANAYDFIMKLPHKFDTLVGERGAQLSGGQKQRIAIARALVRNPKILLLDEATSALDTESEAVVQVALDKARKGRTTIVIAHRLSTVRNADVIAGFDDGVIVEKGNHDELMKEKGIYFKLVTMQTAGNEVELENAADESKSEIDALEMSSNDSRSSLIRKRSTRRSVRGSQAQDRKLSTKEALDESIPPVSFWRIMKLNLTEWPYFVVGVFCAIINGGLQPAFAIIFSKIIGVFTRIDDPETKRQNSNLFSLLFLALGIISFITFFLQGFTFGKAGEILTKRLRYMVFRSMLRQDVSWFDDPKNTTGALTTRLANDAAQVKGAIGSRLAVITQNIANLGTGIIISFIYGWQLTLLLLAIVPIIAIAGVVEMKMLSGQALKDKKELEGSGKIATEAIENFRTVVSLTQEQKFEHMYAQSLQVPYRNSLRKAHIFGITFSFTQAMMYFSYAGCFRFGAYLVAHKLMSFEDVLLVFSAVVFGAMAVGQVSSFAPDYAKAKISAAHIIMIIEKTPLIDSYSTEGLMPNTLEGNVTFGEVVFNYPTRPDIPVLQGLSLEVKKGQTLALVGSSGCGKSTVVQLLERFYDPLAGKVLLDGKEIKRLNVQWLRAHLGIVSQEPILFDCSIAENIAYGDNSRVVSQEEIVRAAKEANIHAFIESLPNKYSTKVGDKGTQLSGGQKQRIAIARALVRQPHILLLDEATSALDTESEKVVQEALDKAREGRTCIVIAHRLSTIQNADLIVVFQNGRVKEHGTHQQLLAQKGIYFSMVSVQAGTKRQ

What was measured:
[1] = target: T1, ATP-dependent translocase ABCB1 (Homo sapiens, UniProt P08183); assay: High affinity constant at binding site of human P-Glycoprotein (P-gp) in two-affinity model
[2] = target: T1, ATP-dependent translocase ABCB1

Row | SMILES | Ki [1] [nM] | Ki [2] [nM]
1 | CN(C)CCCN1c2ccccc2Sc2ccc(Cl)cc21 [CHLORPROMAZINE] | 600 | –
2 | CN1CCN(CCCN2c3ccccc3Sc3ccc(C(F)(F)F)cc32)CC1 [TRIFLUOPERAZINE] | – | 6500
